## Ab-95 light chain CDR variants: yeast mating affinities

The measurements come from Engelhart et al. 2022 (doi:10.1038/s41597-022-01779-4) through the FLAb antibody collection.

Antigen: PDVDLGDISGINAS, a 14-residue peptide of the SARS-CoV-2 spike HR2 region.

Parent: Ab-95, a human scFv built as VH, three GGGGS repeats, VL. Only the CDRs of the light chain vary.
VH: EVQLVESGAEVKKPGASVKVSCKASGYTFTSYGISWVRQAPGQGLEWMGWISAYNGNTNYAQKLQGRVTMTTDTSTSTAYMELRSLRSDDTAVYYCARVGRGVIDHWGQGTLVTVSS
VL: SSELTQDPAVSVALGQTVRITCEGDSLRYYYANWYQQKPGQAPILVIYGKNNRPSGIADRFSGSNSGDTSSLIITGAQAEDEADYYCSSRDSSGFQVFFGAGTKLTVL

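The starting antibody came from a phage panning campaign against this peptide. AAYL52 was designed without a model: most single CDR substitutions and a random sample of double and triple ones. In AlphaSeq, yeast of one mating type display the scFv and yeast of the other type display the target. After mating in shaken culture at 30 °C for 16 h, diploids were selected and their barcode pairs sequenced. The ratio of observed to expected reads was calibrated, replicate by replicate, on BCL2-family standards whose Kd was known from biolayer interferometry. The assay was run in three technical replicates.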

Changes read parent residue, position, new residue, counted from the first residue of the VL shown. Every variant below is changed at G24 of the VL (sequential numbering). Values are apparent Kd, the geometric mean of the replicates that gave a signal; lower means stronger binding. "nd" marks a missing value. The strain was present, yet no cells mated with the target were sequenced in any replicate, which points to weak or no binding. For reference, the parent read 200 nM as the reference entry and 180 nM as a member of this library.

For G24C/S88W, the assay gave nd (0 of 3 replicates). For E23C/G24A/S26L, the assay gave 13 µM (1 of 3 replicates). With G24M/N52E/S55G the result was 170 nM (3 of 3 replicates). The variant G24M/R90Q gave 8.4 µM (1 of 3 replicates). With G24V/G49H/S92T the result was 160 µM (1 of 3 replicates).

With G24I/A32P/F95N the result was 840 nM (3 of 3 replicates). With G24W/N33H/N52R the result was nd (0 of 3 replicates). For G24Q/N52R/F98L, the assay gave 2.9 µM (1 of 3 replicates). The variant G24R/N51K/D91N showed nd (0 of 3 replicates). The variant G24T/R53A/P54N showed nd (0 of 3 replicates).

The variant G24S/S26V/N51T showed nd (0 of 3 replicates). With G24E/Y29V/S92G the result was 5.0 µM (1 of 3 replicates). With G24T/N51P the result was 1.6 µM (3 of 3 replicates). For G24C/D25M/N33Y, the assay gave nd (0 of 3 replicates). The variant G24K gave 2.2 µM (3 of 3 replicates).

The variant G24Q/D25H/F98I showed 5.7 µM (2 of 3 replicates). The variant G24V/S55R/R90W showed 13 µM (3 of 3 replicates). With E23W/G24M/S93N the result was 260 µM (1 of 3 replicates). With G24W/L27G/G49C the result was nd (0 of 3 replicates). For G24H/S88W/F95V, the assay gave 20 µM (2 of 3 replicates).

For G24D/G94A/F95Y, the assay gave 8.0 µM (2 of 3 replicates). For G24A/N33T, the assay gave 2.8 nM (3 of 3 replicates). The variant G24E/S88R/Q96D showed 26 µM (2 of 3 replicates). The variant G24K/L27S/Y29E showed 450 nM (3 of 3 replicates). The variant G24N/N33M/S88N showed 54 µM (1 of 3 replicates).

With G24N/S92G/G94E the result was 22 µM (2 of 3 replicates). The variant G24H/D25G/Y30N gave 44 nM (3 of 3 replicates). With G24N/L27Y/S55W the result was 89 µM (2 of 3 replicates). The variant G24L/S55H/S89Y gave 17 µM (1 of 3 replicates). With G24K/Y30F/A32H the result was 1.5 µM (1 of 3 replicates).

Again, the first 3 entries without any signal:

G24C/S88W: nd (0 of 3 replicates).
G24W/N33H/N52R: nd (0 of 3 replicates).
G24R/N51K/D91N: nd (0 of 3 replicates).

Empty control strains, which show no peptide, gave a signal in 28% of pairings with library AAYL52; the median was 8.2 µM and 95% of these signals were weaker than 800 nM. No background was subtracted.